From patent US5654299A, “Aryl substituted heterocycles” (Zeneca Limited, priority 1993, dated 1997)

Amino acid sequences for entries named in this document (tags omitted).
UniProt P21452, whole entry: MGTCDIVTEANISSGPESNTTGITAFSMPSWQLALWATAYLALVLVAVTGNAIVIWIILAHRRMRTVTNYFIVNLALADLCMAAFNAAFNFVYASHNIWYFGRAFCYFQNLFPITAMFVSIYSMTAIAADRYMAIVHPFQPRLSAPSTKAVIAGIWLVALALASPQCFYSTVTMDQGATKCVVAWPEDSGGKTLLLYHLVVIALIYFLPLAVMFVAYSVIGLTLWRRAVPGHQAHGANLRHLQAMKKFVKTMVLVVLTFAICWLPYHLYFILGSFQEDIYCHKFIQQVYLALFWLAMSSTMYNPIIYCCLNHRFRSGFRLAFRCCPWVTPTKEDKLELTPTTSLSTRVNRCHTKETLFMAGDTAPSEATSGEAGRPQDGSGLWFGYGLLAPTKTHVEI

Target: human NK2 receptor (Homo sapiens, UniProt P21452)
Test: Equilibrium-competition binding of 3H-NKA to MELM (receptor characterisation)

In the case of [4,5-^3 H-Leu^9 ]-NKA [Example 3H-NKA], the “specific binding of 3H-NKA to MELM” value (3H-NKA 2.5 nM) is reported as 88±4% and the “Bmax of 3H-NKA binding” value (MELM, equilibrium-competition) is reported as 2229 fmol/mg protein.
